# HDAC3 inhib – blocks human histone deacetylase 3 | O15379 | recombinant HDAC3, fluorogenic peptide/trypsin coupled, fluorescence | inhibition, % at 8.3 µM | hit rate 0.15% among 320,000; in the data active means inhibition above about 26%, passing the limit was not always enough
# NALP1 inh – inhibitors of NALP1 inflammasome in yeast | inhibition, % at 10 µM | AID 2071 | S. cerevisiae NALP1/ASC/caspase-1 growth, X-gal OD620, 72 h | hit rate 0.61% among 280,000; in the data active means inhibition mostly above about 24%, no sharp cut-off; inactive means mostly below about 32%
# MC4R antag cAMP – blocks human MC4R cAMP signaling | MC4R-expressing cells, MTII-stimulated cAMP, LANCE TR-FRET | inhibition, % at 6.5 µM | hit rate 0.48% among 360,000 | AID 540295;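 active means inhibition above its plate's cutoff, the mean of tested wells on that plate plus 3 SD, cut at about 29% in these data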
#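 Assay system: U2OS cells stably expressing human melanocortin 4 receptor (MC4R) / Dosing: 6.5 µM / Timing: compound 30 min, challenge 1 h, detection 1 h / Measured by: Eu-cAMP/anti-cAMP TR-FRET, emission 671 nm / Replicates: singlicate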
# ALR inh – human ALR oxidase inhibition via reduced H2O2; purified ALR, DTT oxidation, H2O2 HRP-luminol luminescence; P55789; 290,000 tested, 3.8% active; AID 485317; inhibition, % (no concentration beside the values);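 active means mean and each replicate at 75% or more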;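 further: stock transfer was 7.5 nL into about 7.5 µL; 0% = neutral wells and 100% = wells with inactivated enzyme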
# MC4R barr agon – agonists of human melanocortin 4 receptor (MC4R) beta-arrestin. hit rate 0.98% among 360,000. activation, % at 8.9 µM. P32245. AID 540308. U2OS MC4R beta-arrestin complementation, luminescence; percent of melanotan II response, DMSO zero;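 active means activation above a per-plate cutoff, the mean activation of sample wells on that plate plus 3 SD, cut at about 8% in these data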
# Yeast UUG start – yeast start codon fidelity modulation; AID 602363; activity score, % at 18.7 µM; S. cerevisiae UUG-firefly luciferase reporter, luminescence/redox ratio; 0.13% of 350,000 active;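 active means replicate mean at a twofold rise or more, about +100% in these data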;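 further: firefly luciferase made from a UUG start codon reports start codon fidelity; reporter light over untreated wells divided by growth signal over untreated wells; some hits fall short of that in this replicate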
# Numbers stand for hits; . = inactive; / = no result. Rows were chosen to be rich in hits. Some 4.2% of all compounds tested hit in one or more screens of this group.
SMILES,HDAC3 inhib,NALP1 inh,MC4R antag cAMP,ALR inh,MC4R barr agon,Yeast UUG start
CCOCCCNC(=S)N(CCN(C)C)Cc1cc2cc3c(cc2[nH]c1=O)OCCO3,34.8,.,.,/,.,.
CCN(CC)CCN(Cc1cc2cc3c(cc2[nH]c1=O)OCCO3)C(=S)NCCCN(C)C,.,44.2,.,.,.,.
COc1cc2[nH]c3ccccc3c2cc1C,.,22.1,.,81.0,.,.
CCOC(=O)c1ccc2[nH]c3ccccc3c2c1,.,.,.,.,.,.
CCC(=O)Nc1ccc2c(c1)C(=O)N(C)C[C@@H](OC)[C@@H](C)CN(C(=O)c1cnccn1)[C@@H](C)CO2,/,/,/,/,/,.
CCOc1cc(-c2nc(-c3ccc(C)nc3OCC)no2)cc(OCC)c1OCC,.,.,.,.,.,.
CCOc1cc(-c2nc(-c3ccc(C)nc3OC)no2)cc(OCC)c1OCC,/,27.2,.,/,.,.
CCCCc1c(O)nc(SCC(=O)c2ccccc2)n(-c2ccccc2C)c1=O,.,.,.,97.3,.,.
CCCCc1c(O)nc(SCC(=O)c2ccccc2)n(-c2ccccc2)c1=O,.,.,.,.,.,.
CCCCc1c(O)nc(SCC(=O)c2ccccc2)n(-c2ccccc2OC)c1=O,.,.,.,98.7,.,.
COc1ccc(-c2noc(CSc3nc(N)c(-c4ccccc4)c(=O)[nH]3)n2)cc1OC,.,.,.,99.5,.,.
COc1ccc(-c2noc(CSc3nc(-c4ccccc4)cc(=O)[nH]3)n2)cc1,.,39.7,.,.,.,.
CCc1cc(C(=O)c2ccccc2OC)c(N)s1,.,.,.,93.2,.,.
CCn1c(=O)[nH]c(=O)c2c(N)c(C(=O)c3ccccc3OC)sc21,.,.,.,.,.,.
CCc1cc(C(=O)c2ccc(OC)cc2)c(N)s1,.,.,.,98.9,.,.
CCc1cc(C(=O)c2ccc(OC)cc2)c(NC(=O)CC(C)(C)CC(=O)O)s1,.,/,.,80.8,.,/
COc1ccc(C(=O)c2ccsc2N)cc1,.,.,.,.,.,/
CCc1cc(C(=O)c2ccc(OC)cc2)c(NC(=O)COCC(=O)O)s1,.,.,.,/,.,.
C[C@@H]1CN([C@@H](C)CO)C(=O)c2cc(C3=CCCCC3)cnc2O[C@@H]1CN(C)Cc1ccccn1,/,/,/,/,/,.
O=C(CN1CCCC1)N1CCCc2c1c(=O)oc1ccc(OCc3ccccc3)cc21,.,28.8,.,.,.,.
CCCOc1ccc2oc(=O)c3c(c2c1)CCCN3C(=O)CN1CCN(C(=O)c2ccco2)CC1,.,.,/,.,/,/
CCOc1ccc(CSC(CC(=O)O)C(=O)O)cc1 (stereo not given),.,.,.,98.1,.,.
CO[C@H]1CN(C)C(=O)c2ccc(NC(C)=O)cc2OC[C@@H](C)N(CC2CCCCC2)C[C@H]1C,/,/,/,/,/,.
O=C(CSc1nc2[nH]c(=O)cc(O)c2s1)Nc1cccc(Br)c1,.,/,.,99.2,.,.
COc1cc(NC(=O)CSc2nc3[nH]c(=O)cc(O)c3s2)cc(OC)c1OC,.,/,.,98.9,.,.
SMILES,HDAC3 inhib,NALP1 inh,MC4R antag cAMP,ALR inh,MC4R barr agon,Yeast UUG start
Cc1cccc(C)c1NC(=O)CSc1nc2[nH]c(=O)cc(O)c2s1,.,/,.,.,.,.
Cc1cccc(NC(=O)CSc2nc3[nH]c(=O)cc(O)c3s2)c1,.,/,.,99.3,.,.
Nc1nc(SCC(=O)Nc2ccc([N+](=O)[O-])cc2)[nH]c(=O)c1NC(=O)c1ccc(Br)cc1,.,26.9,.,.,.,.
Nc1cc(=O)[nH]c(SCC(=O)Nc2ccc([N+](=O)[O-])cc2)n1,/,.,.,/,.,.
COc1ccccc1CNC(=O)C[C@@H]1C[C@@H]2c3cc(NC(=O)NC4CCCC4)ccc3O[C@@H]2[C@@H](CO)O1,/,/,/,/,/,.
COc1ccc(S(=O)(=O)N2C[C@H](O)COC[C@H]3O[C@H](CC(=O)N[C@@H]4CCN(Cc5ccccc5)C4)CC[C@@H]32)cc1,/,/,/,/,/,.
COc1ccc(NC(=O)CSc2nc3[nH]c(=O)[nH]c(=O)c3s2)cc1OC,.,.,.,98.8,.,.
Cc1cc(C)cc(NC(=O)CSc2nc(CSc3ccc(Cl)cc3)cc(=O)[nH]2)c1,.,33.6,.,.,8.6,.
O=C(CSc1nc2[nH]c(=O)cc(O)c2s1)Nc1ccc(Br)cc1,.,/,.,82.3,.,.
Nc1cc(=O)[nH]c(SCC(=O)Nc2ccc(Br)cc2)n1,.,.,.,98.3,.,.
C[C@@H](O)C#Cc1ccc([C@H]2[C@@H](CO)N3CCCCN(C(=O)c4ccc(F)cc4)C[C@@H]23)cc1,/,/,/,/,/,.
O=C1O[C@H](c2ccccc2)[C@H](c2ccccc2)N2[C@H]1[C@@H](C(=O)N1CCCCCCC1)[C@]1(C(=O)Nc3ccc(C#CC4=CCCCC4)cc31)[C@H]2c1ccc(O)cc1,/,/,/,/,/,.
CCn1c(CCn2c3ccccc3c3ccccc32)n[nH]c1=S,.,.,.,88.2,.,.
Cc1noc(C)c1CSc1nc2ccccc2n1CCc1ccccc1,.,.,.,95.1,.,.
CCn1c(CSCc2ccccc2)n[nH]c1=S,.,.,.,.,.,.
CCn1c(CSc2nc3ccccc3[nH]2)n[nH]c1=S,.,.,.,95.6,.,.
COc1ccc2nc(SCc3cnc(C)nc3N)[nH]c2c1,.,.,.,.,.,.
Cc1ncc(CSc2nc3ccccc3[nH]2)c(N)n1,.,.,.,87.7,.,.
O=C(O)CCn1c(SCc2ccccc2)nc2ccccc21,.,.,.,.,.,.
O=S(=O)(NC1CCN(Cc2ccc(OCCO)cc2)CC1)c1cc(C(F)(F)F)ccc1Cl,/,/,/,/,/,.
O=C(C[C@@H]1CC[C@H]2[C@@H](COC[C@@H](O)CN2C(=O)Nc2ccc(F)cc2)O1)NC1Cc2ccccc2C1,/,/,/,/,/,.
Cc1noc(C)c1CSc1nc2ccccc2[nH]1,.,.,.,99.3,.,.
CCNC(=O)[C@@H]1[C@@H](CO)[C@@H]2Cn3c(ccc(C4=CCCC4)c3=O)[C@@H]2N1C(=O)CC1CC1,/,/,/,/,/,.
CCCCn1c(NCc2ccccc2O)nc2ccccc21,.,.,.,97.6,.,.
CCCCn1c(NCCO)nc2ccccc21,.,.,.,97.8,.,.
SMILES,HDAC3 inhib,NALP1 inh,MC4R antag cAMP,ALR inh,MC4R barr agon,Yeast UUG start
Cc1cc(C)nc(SCNC(=O)c2ccccc2)n1,.,.,.,.,.,.
Cc1cc(SCNC(=O)c2ccccc2)nc(C(C)C)n1,.,.,.,98.5,.,/
C[C@H](CO)N1C[C@H](C)[C@H](CN(C)C(=O)NC2CCCCC2)OCCCC[C@H](C)Oc2ccc(NS(=O)(=O)c3cn(C)cn3)cc2C1=O,/,/,/,/,/,.
Cc1cc(C(=O)N2CCCC(Nc3ccccc3)C2)c2ccc(F)cc2n1 (stereo not given),.,.,.,98.5,.,.
COc1ccc(NC2CCCN(C(=O)c3cc(C)nc4cc(F)ccc34)C2)cc1 (stereo not given),.,.,.,99.1,.,.
O=C(O)C1CSC(c2ccco2)N1 (stereo not given),.,.,.,.,.,.

# Screening results deposited in PubChem BioAssay by several laboratories.
